Experimental findings from ChEMBL document CHEMBL1151820, “Antagonists of the P2X(7) receptor. From lead identification to drug development” (J Med Chem, 2009) are described below.

Sequences of proteins named here, by UniProt entry; tags and fusion partners are left off. A change or cut given only in a name is not applied to a line headed by its entry.
UniProt Q99572: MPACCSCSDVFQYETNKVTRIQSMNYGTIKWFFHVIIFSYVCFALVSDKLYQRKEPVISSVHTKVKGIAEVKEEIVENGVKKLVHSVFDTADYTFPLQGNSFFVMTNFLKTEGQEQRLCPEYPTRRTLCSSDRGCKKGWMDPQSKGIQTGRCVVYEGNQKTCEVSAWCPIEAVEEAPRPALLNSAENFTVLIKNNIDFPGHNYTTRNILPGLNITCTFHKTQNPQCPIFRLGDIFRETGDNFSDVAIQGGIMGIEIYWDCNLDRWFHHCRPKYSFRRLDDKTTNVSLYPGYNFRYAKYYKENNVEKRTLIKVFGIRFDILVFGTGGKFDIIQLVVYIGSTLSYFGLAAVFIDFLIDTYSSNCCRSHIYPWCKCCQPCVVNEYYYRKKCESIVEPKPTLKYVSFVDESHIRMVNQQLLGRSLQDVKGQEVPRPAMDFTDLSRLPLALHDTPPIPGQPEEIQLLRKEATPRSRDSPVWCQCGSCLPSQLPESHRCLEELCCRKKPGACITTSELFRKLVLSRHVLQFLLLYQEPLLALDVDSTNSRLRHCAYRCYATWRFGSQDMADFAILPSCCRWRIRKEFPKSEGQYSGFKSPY

A word on the pIC50: it is the IC50 on a negative log10 scale, so that one unit is a factor of ten.

The experiment concerns the target P2X purinoceptor 7 (Homo sapiens, UniProt Q99572). Put plainly: Antagonist activity at P2X7 receptor in human THP1 cells assessed as inhibition of BzATP-induced ethidium uptake. The class given is functional, cell-based, THP-1.

pIC50: −log10 of the molar value.

`O=C(Cc1ccc(Cl)c(C(F)(F)F)c1)Nc1cccc2c(=O)n(CCO)ccc12`: the pIC50 is 8.70.
